{
  "source": "patent US20030237103A1",
  "about": "“Methods and compositions for pharmacological and toxicological evaluation of test agents” (priority 2002, published 2003)",
  "key": {"[1]": {"test_system": "Sprague Dawley (CD-IGS) rats", "assay": "Protein excretion in urine of gentamicin-treated rats", "settings": "240 mg/Kg daily, 7 day protocol"}, "[2]": {"test_system": "Panel, parental and outbred (CD-IGS) rat strains", "assay": "Clinical chemistry endpoints of gentamicin-treated vs. vehicle rats"}},
  "data": [
    {"substance": "gentamicin", "values": [
      {"measurement": "sensitivity to gentamicin (protein excretion in urine)", "setting": "[1]; majority (n=11) of CD-IGS rats", "value": "resistant"},
      {"measurement": "sensitivity to gentamicin (protein excretion in urine)", "setting": "[1]; subgroup (n=7) of CD-IGS rats", "value": "highly sensitive"},
      {"measurement": "increase in plasma BUN levels", "setting": "[2]; CD-IGS rats, gentamicin vs. vehicle", "value": 50, "unit": "%"},
      {"measurement": "nephrotoxic effects (plasma BUN increase) relative to other strains", "setting": "[2]; CD-IGS, on average", "value": "resistant"},
      {"measurement": "nephrotoxic effects (plasma BUN increase), strain sensitivity", "setting": "[2]; LEW and F344", "value": "most sensitive"},
      {"measurement": "nephrotoxic effects (plasma BUN increase), strain sensitivity", "setting": "[2]; WKY", "value": "most resistant"},
      {"measurement": "plasma BUN or creatinine concentration (indices of renal damage)", "setting": "[2]; all strains except WKY, 240 mg/Kg/day", "value": "statistically significant increase"}
    ]}
  ]
}
